Results reported in ChEMBL document CHEMBL1136643, “Identification of a novel series of selective 5-HT7 receptor antagonists” (Bioorg Med Chem Lett, 2003).

Chains of the proteins cited; added tags and fusions are not shown.
UniProt P28223, whole entry: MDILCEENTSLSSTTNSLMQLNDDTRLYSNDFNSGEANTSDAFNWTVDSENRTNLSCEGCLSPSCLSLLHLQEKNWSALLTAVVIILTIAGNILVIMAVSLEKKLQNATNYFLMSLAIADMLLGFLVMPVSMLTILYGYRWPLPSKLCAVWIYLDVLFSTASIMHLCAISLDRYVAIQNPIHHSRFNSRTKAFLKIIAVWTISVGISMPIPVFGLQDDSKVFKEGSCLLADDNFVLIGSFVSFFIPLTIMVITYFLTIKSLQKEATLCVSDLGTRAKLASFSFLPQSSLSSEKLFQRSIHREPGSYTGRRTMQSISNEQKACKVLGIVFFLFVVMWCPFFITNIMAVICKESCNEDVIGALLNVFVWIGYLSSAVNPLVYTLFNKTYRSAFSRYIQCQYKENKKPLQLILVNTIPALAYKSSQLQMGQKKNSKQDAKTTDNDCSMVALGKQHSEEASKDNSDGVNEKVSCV
UniProt P34969, whole entry: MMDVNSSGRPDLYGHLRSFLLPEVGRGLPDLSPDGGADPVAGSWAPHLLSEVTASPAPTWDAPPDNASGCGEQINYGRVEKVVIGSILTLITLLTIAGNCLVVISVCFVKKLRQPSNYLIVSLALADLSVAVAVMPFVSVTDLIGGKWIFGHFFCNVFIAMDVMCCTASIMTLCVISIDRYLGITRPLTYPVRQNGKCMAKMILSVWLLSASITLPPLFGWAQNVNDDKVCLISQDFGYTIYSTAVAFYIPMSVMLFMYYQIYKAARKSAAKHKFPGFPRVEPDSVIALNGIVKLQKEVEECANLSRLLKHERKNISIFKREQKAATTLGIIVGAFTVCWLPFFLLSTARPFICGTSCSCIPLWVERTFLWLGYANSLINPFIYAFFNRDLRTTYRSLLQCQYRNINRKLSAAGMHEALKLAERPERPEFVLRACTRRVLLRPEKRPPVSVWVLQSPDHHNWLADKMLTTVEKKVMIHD

What was measured:
[1] = molecular target: 5-hydroxytryptamine receptor 2A (Homo sapiens, UniProt P28223); assay: Binding affinity at human cloned 5-hydroxytryptamine 2A receptor.
[2] = molecular target: 5-hydroxytryptamine receptor 7 (Homo sapiens, UniProt P34969); assay: Binding affinity at human cloned 5-hydroxytryptamine 7 receptor.

Row | SMILES | Log Ki [1] | Log Ki [2]
1 | O=C1c2ccccc2CCCN1CCN1CCC(N2C(=O)Cc3ccccc32)CC1 | -6.65 | -7.43
2 | O=C1c2ccccc2CCCN1CCN1CCC(N2C(=O)Cc3cc(F)ccc32)CC1 | -7.37 | -8.16

This is a selection: effects in other tests are not listed, and their absence says nothing.
